The text below walks through data of patent US20260216348A1, “IRAK DEGRADATION AGENT AND USE THEREOF” (Increland, priority 2023, published 2026).

By UniProt entry, the sequences of proteins in these tests, tags left out.
UniProt Q9NWZ3, whole entry: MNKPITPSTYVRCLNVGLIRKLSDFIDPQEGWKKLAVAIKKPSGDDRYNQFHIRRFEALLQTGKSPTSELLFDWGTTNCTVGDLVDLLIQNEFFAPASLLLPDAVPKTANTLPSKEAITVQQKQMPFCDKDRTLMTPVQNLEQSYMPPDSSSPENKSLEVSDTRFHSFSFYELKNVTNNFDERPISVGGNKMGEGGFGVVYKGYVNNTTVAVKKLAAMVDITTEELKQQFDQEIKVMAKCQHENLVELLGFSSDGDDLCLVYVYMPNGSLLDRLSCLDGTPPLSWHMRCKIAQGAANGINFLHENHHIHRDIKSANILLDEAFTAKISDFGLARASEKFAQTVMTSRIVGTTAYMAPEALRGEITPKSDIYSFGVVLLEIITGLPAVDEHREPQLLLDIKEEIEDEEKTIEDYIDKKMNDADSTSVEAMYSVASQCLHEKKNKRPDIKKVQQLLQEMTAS

In data set [1] the test system is R848-induced IL-6 secretion in human peripheral blood mononuclear cells (PBMCs). Nature of the data set: Inhibition of R848-induced IL-6 secretion in human PBMCs (IL-6 ELISA). The settings on record: read-out: IC50, inhibition of R848-induced secretion of IL-6 in PBMC cells; R848 2.5 μg/mL, 20 h pre-incubation, 24 h stimulation.
The test system of data set [2] is LPS/IL-1β-induced IL-6 secretion in human peripheral blood mononuclear cells (PBMCs). Nature of the data set: Inhibition of LPS/IL-1β-induced IL-6 secretion in human PBMCs (IL-6 ELISA). The settings on record: read-out: IC50, inhibition of LPS/IL-1β-induced secretion of IL-6 in PBMC cells; LPS 10 ng/mL + IL-1β 20 ng/mL, 24 h pre-incubation, 20 h stimulation.
The target in the next data set is IRAK4 (Homo sapiens, UniProt Q9NWZ3). Nature of the data set: IRAK4 protein degradation in THP1 cells (Western blot). It counts as cell-based. Particulars: read-out: DC50, IRAK4 protein degradation in THP1 cells; THP-1 cells, 24 h.
A short description of data set [3]: Metabolic stability in human liver microsome. Particulars: NADPH, 60 min.
The nature of data set [4]: Pharmacokinetic experiment on SD rats (iv and intragastric).
The subject of data set [5] is DSS-induced enteritis model. Nature of the data set: DSS-induced enteritis (colitis) model. Particulars: po, QD, Model 10.33 ± 1.11, Mean ± SD, n = 7.

Consider `CN(C)c1cc2nn([C@H]3CC[C@H](CN4CCC(n5cc6ccc(N7CCC(=O)NC7=O)cc6n5)CC4)CC3)cc2cc1NC(=O)c1cnn2cccnc12`, for which the figures for the IC50 in data set [1] and in data set [2] were 10.5 nM and 0.27 nM, respectively. Moreover, the DC50 on IRAK4 was determined as 3.03 nM. In data set [3], the “Human liver microsome (t1/2, min)” value was found to be 145 min. In addition, the “Oral bioavailability Fobs” value in data set [4] (ig 5.00 mg/kg vs iv 1.00 mg/kg) was found to be 27.7%. In addition, the AUCall in data set [4] (ig, 5.00 mg/kg) stood at 1353.75 ± 515.03 ng·h/mL; in data set [4] (iv, 1.00 mg/kg), 963.53 ± 123.07 ng·h/mL. The AUCinf was determined as 1377.38 ± 512.87 ng·h/mL in data set [4] (ig, 5.00 mg/kg) and 995.74 ± 142.87 ng·h/mL in data set [4] (iv, 1.00 mg/kg). Further, the “Peak plasma concentration Cmax” value in data set [4] (ig, 5.00 mg/kg) amounted to 466.67 ± 225.85 ng/mL; in data set [4] (iv, 1.00 mg/kg) it was 634.00 ± 138.79 ng/mL. Further, the DAI Score d 8 in data set [5] (10 mpk) is 4.57 ····; in data set [5] (20 mpk), 3.71 ····; in data set [5] (40 mpk), 3.14 ····.
